These results are taken from ChEMBL document CHEMBL5154716, “Neuropeptide B/W receptor 1 peptidomimetic agonists: Structure-activity relationships and plasma stability” (Eur J Med Chem, 2022).

In the test the target is T1, Neuropeptides B/W receptor type 1 (Homo sapiens, UniProt P48145).
T1 sequence (P48145 whole entry): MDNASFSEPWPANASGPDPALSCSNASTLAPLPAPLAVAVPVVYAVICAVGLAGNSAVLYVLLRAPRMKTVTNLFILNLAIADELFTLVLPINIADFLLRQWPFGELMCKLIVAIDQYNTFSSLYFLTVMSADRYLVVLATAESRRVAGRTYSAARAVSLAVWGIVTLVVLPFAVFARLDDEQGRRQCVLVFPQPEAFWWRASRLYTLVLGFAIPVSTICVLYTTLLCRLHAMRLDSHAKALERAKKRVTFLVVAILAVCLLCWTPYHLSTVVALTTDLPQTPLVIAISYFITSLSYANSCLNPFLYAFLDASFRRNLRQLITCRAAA
The test can be described thus: Agonist activity at human NPBWR1 expressed in CHO-RD-HGA16 cells measured by calcium mobilization assay. The test is classed as functional, cell-based.

SMILES strings stand for the structures.

For the compound `CSCC[C@H](NC(=O)[C@H](CC(C)C)NC(=O)[C@H](CC(C)C)NC(=O)CNC(=O)[C@H](C)NC(=O)[C@H](C)NC(=O)[C@H](CCCNC(=N)N)NC(=O)CNC(=O)[C@@H](NC(=O)[C@@H](NC(=O)[C@H](Cc1cnc[nH]1)NC(=O)[C@H](Cc1ccc(O)cc1)NC(=O)[C@H](CCCNC(=N)N)NC(=O)[C@@H]1CCCN1C(=O)[C@H](CO)NC(=O)[C@H](C)NC(=O)[C@@H](NC(=O)[C@H](Cc1cnc[nH]1)NC(=O)[C@H](CCCCN)NC(=O)[C@H](Cc1ccc(O)cc1)NC(=O)[C@@H](N)Cc1c[nH]c2ccccc12)C(C)C)[C@@H](C)O)C(C)C)C(=O)NCC(=O)N[C@@H](CC(C)C)C(=O)N[C@@H](CCCNC(=N)N)C(=O)N[C@@H](CCCNC(=N)N)C(=O)N[C@@H](CO)C(=O)N1CCC[C@H]1C(=O)N[C@@H](Cc1ccc(O)cc1)C(=O)N[C@@H](CC(C)C)C(=O)N[C@@H](Cc1c[nH]c2ccccc12)C(=O)O`, the EC50 was determined as 10.9 nM.
